Results as given in US20210403542A1.

Experiments:
[1] = biological target: BAN0805; assay: inhibition ELISA; concentration of α-synuclein monomer varied against BAN0805; coated antigen not given
[2] = biological target: BAN0805; assay: inhibition ELISA; concentration of α-synuclein monomer varied against BAN0805 (hu47-IgG4); coated antigen not named in the filing [table under the graph]
[3] = biological target: BAN0805; assay: inhibition ELISA; concentration of α-synuclein protofibril (as monomer equivalents) varied against BAN0805; coated antigen not given

Row | Substance | IC50 (read off the curve) [1] | pIC50 [2] | IC50 (read off the curve) [3]
1 | α-synuclein monomer (from UniProt P37840 1-140) | 1000 nM | 5.88 | –
2 | human α-synuclein protofibril (from UniProt P37840 1-140) | – | – | 1 nM

pIC50: −log10 of the molar value.
